Experimental data: PubChem BioAssay AID411 (National Center for Advancing Translational Sciences (NCATS), 2006)
This is a selection; strong and weak results do not stand in their true shares. The source made the active and inactive calls. Calls follow the shape of the dose curve; as a rule, active = well fitted inhibition curve with a large enough effect; inconclusive = small, poorly fitted or top-dose-only effect; inactive = flat fitted curve, though single readings scatter.

The chains behind the UniProt entries cited, without tags or fusion partners.
UniProt P08659, whole entry: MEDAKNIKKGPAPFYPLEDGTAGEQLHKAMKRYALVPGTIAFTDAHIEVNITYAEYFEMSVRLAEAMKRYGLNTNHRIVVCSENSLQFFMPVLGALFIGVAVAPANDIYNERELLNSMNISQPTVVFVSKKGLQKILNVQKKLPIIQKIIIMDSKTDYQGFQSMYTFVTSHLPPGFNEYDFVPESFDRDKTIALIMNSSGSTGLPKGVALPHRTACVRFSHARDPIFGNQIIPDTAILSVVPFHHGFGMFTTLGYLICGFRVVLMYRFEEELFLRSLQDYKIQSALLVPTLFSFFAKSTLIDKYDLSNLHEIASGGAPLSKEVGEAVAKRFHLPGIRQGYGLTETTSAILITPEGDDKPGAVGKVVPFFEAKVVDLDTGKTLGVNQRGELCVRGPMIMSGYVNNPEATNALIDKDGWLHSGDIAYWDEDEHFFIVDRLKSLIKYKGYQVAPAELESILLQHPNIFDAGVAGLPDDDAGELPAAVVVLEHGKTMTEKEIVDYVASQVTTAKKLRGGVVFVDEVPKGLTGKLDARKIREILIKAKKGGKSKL

Each compound was assayed against Luciferin 4-monooxygenase (Photinus pyralis) (UniProt P08659) (assay: qHTS Assay for Inhibitors of Firefly Luciferase). Settings: purified firefly luciferase, luminescence, 8 min; at 57.1 µM (top of the series) unless noted.
Experimental: To aid in the interpretation of high-throughput screening (HTS) results derived from luciferase-based assays, we used quantitative HTS, an approach that defines the concentration-response behavior of each library sample, to profile the ATP-dependent luciferase from Photinus pyralis against more than 72 000 samples. Luciferase (PKLight, Cambrex Corporation) was assayed for its ability to generate light using ATP and luciferin as substrates. The ATP concentration in the assay (10 uM) was within the linear range of enzyme activity for the assay conditions used. See following reference for further details: [1] Auld DS, Southall NT, Jadhav A, Johnson RL, Diller DJ, Simeonov A, Austin CP, Inglese J. Characterization of chemical libraries for luciferase inhibitory activity. J Med Chem. 2008 Apr 24;51(8):2372-86. Auld DS, Zhang YQ, Southall NT, Rai G, Landsman M, Maclure J, Langevin D, Thomas CJ, Austin CP, Inglese J. A Basis for Reduced Chemical Library Inhibition of Firefly Luciferase Obtained from Directed Evolution. J. Med. Chem., 2009, 52 (5), pp 1450#1458 [3] Auld DS, Thorne N, Nguyen DT, Inglese J. A specific mechanism for nonspecific activation in reporter-gene assays. ACS Chem Biol. 2008 Aug 15;3(8):463-70. Auld DS, Thorne N, Maguire WF, Inglese J. Mechanism of PTC124 activity in cell-based luciferase assays of nonsense codon suppression. Proc Natl Acad Sci U S A. 2009 Mar 3;106(9):3585-90. Inglese J, Auld DS, Jadhav A, Johnson RL, Simeonov A, Yasgar A, Zheng W, Austin CP. Quantitative high-throughput screening: a titration-based approach that efficiently identifies biological activities in large chemical libraries. Proc Natl Acad Sci U S A. 2006 Aug 1;103(31):11473-8.
Four uL of substrate mix (final concentration, 50 mM imidazole pH 7.2, 50 mM KCl, 7 mM MgCl2, 10 uM ATP, 0.01% Tween 20, 0.05% BSA) was dispensed into white 1536 well plates. Twenty-three nL of compound was delivered by a pin tool and 2 uL of luciferase detector mix (PKLight, Cambrex) was added. Following 8-minute incubation at ambient temperature, luminescence was measured by a ViewLux (Perkin Elmer) at 5 seconds exposure/plate.
% is scaled to controls: 0 for no effect and ±100 for the full control effect.
Also: nearly all actives have a fitted effect of over 40% in size.

Row | Structure (SMILES) | activity change, negative = inhibition
1 | COc1ccccc1OP(C)(=O)Nc1ccc(C)cc1 (configuration not stated) | inactive: -1.05%
2 | Cc1ccc(NP(C)(=O)Oc2ccccc2)c(C)c1 (configuration not stated) | inactive: -1.57%
3 | CP(=S)(Nn1cnnc1)Oc1ccccc1 (configuration not stated) | inactive: 1.68%
4 | N1=C(c2nnc(-c3nn[nH]n3)nn2)NNN1 | inactive: -1.67% [at 11.4 µM]
5 | CCOP(C)(=S)SCC(=O)NC(C)C(=O)O (configuration not stated) | inactive: -0.61%
6 | CP(=O)(NC(=O)Nc1ccccc1)Oc1ccccc1 (configuration not stated) | inactive: -0.0318%
7 | Cc1nc2ccc3ccccc3c2s1.O=[N+]([O-])c1cc([N+](=O)[O-])c(O)c([N+](=O)[O-])c1 | inactive: -4.72%
8 | Cc1ccc(C)c(NP(C)(=O)Oc2ccccc2)c1 (configuration not stated) | inactive: 1.09%
9 | CP(=O)(Nc1ccccc1F)Oc1ccccc1 (configuration not stated) | inactive: 0.049%
10 | CN(C)CCOC(=O)C(O)(c1ccccc1)C1CCCCC1 (configuration not stated) | inactive: 1.8%
11 | Cc1ccccc1NP(C)(=O)Nc1ccccc1C | inactive: -0.539%
12 | NNC(NN)NN.n1nc(-c2nn[nH]n2)n[nH]1 | inactive: -0.149% [at 11.4 µM]
13 | CP(=O)(Nc1ccc2c(c1)OCCO2)Oc1ccccc1 (configuration not stated) | inactive: 1.61%
14 | CCOP(C)(=S)SCC(=O)NC(C)(CC)C(=O)O (configuration not stated) | inactive: -0.642%
15 | COc1ccccc1OP(C)(=O)Nc1c(C)n(C)n(-c2ccccc2)c1=O (configuration not stated) | inactive: 3.28%
16 | CP(=O)(Oc1ccccc1)N1CCOC1=O (configuration not stated) | inactive: -0.921%
17 | CCN(CC)CC(O)COC(=O)C(O)(c1ccccc1)C1CCCCC1 (configuration not stated) | inactive: -0.988% [at 25.5 µM]
18 | N#[O+].[C-]#N.[C-]#N.[C-]#N.[C-]#N.[C-]#N.[Fe+2].[Na+].[Na+] | inactive: -1.87%
19 | C/C1=C2N=C(/C=C3N=C(/C(C)=C4\[N-][C@@](C)([C@H]5N=C1[C@@](C)(CCC(=O)NC[C@H](C)OP(=O)([O-])O[C@@H]1[C@H](O)[C@H](n6cnc7cc(C)c(C)cc76)O[C@@H]1CO)[C@@H]5CC(N)=O)[C@](C)(CC(N)=O)[C@H]4CCC(N)=O)[C@@](C)(CC(N)=O)[C@@H]\3CCC(N)=O)C(C)(C)[C@@H]/2CCC(N)=O.[C-]#N.[Co+3] | inactive: -0.85% [at 25.5 µM]
20 | Cc1nc2ccc3ccccc3c2o1.O=[N+]([O-])c1cc([N+](=O)[O-])c(O)c([N+](=O)[O-])c1 | inactive: -10.9%
21 | COc1ccccc1OP(C)(=O)Nc1ccc(C)c(C)c1 (configuration not stated) | inactive: -0.824%
22 | CP(=O)(Nc1ccccn1)Oc1ccccc1 (configuration not stated) | inactive: 1.51%
